target: Cannabinoid receptor 2 (Homo sapiens, UniProt P34972); test: Agonist activity at human CB2 receptor expressed in CHO cells assessed as stimulation of [35S]-GTPgammaS binding relative to basal activity; type: functional, cell-based

The chains behind the UniProt entries cited, without tags or fusion partners.
UniProt P34972, whole entry: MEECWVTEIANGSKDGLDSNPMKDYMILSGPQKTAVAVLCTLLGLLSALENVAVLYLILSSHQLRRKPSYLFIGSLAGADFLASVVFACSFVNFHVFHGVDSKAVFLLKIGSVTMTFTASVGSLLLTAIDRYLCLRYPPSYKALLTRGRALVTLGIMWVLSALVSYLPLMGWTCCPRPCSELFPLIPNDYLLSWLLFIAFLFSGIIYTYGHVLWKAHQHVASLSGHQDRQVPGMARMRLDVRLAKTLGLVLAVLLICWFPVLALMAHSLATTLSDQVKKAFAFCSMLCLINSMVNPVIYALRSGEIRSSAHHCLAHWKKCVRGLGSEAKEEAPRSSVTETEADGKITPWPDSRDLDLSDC

SMILES | Emax [%]
CCCCCn1cc(C(=O)NC2CCCCC2)c(=O)cc1C(C)(C)C | 135
CCCCCn1cc(C(=O)NC23CC4CC(CC(C4)C2)C3)c(=O)cc1-c1ccc(Cl)cc1 | 42
CCCCCn1cc(C(=O)NCC23CC4CC(CC(C4)C2)C3)c(=O)cc1-c1ccccc1 | 37
CCCCCn1cc(C(=O)NC23CC4CC(CC(C4)C2)C3)c(=O)cc1-c1ccccc1 | 39
CCCCCCn1cc(C(=O)NC23CC4CC(CC(C4)C2)C3)c(=O)cc1-c1ccccc1 | 33
